These results are taken from ChEMBL document CHEMBL5126505, “Adenosine receptor antagonists: Recent advances and therapeutic perspective” (Eur J Med Chem, 2022).

The target in assay [1] is T1, Adenosine receptor A2a (Homo sapiens, UniProt P29274). As to the kind of experiment: Binding affinity to human adenosine A2A receptor assessed as dissociation constants of high-affinity (KH) measured by radioligand-based affinity assay. Conditions: filed as inverse agonist.
Assay [2] concerns the target T1, Adenosine receptor A2a. As to the kind of experiment: Inverse agonist activity at human A2A receptor assessed as inhibition of cAMP accumulation relative to control. Type of assay: functional. Also noted: scale not given: the % may be the effect or the level left. The following applies: filed as inverse agonist.

With `COc1cccc(CNc2nc(N)c3nc(-c4ccco4)sc3n2)c1`, at Adenosine receptor A2a [1], the K turned out to be 23 nM. Further, on Adenosine receptor A2a [2], the Activity was 41%.
For the molecule `COc1ccccc1CNc1nc(N)c2nc(-c3ccco3)sc2n1`, the K at Adenosine receptor A2a [1] stood at 7.16 nM. For the same molecule, the Activity on Adenosine receptor A2a [2] was 63%.
